Screening results: PubChem BioAssay, National Center for Advancing Translational Sciences (NCATS)
Vif-APOBEC3G blk = inhibitors of Vif-APOBEC3G interaction; Q9HC16; HeLa A3G-eYFP + Vif (tagged APOBEC3G with the HIV-1 protein that degrades it), YFP fluorescence, overnight; Potency, µM (highest dose often 46.1 µM), for the others: at the highest dose activity, negative = active, most hits filed as inhibitors; hit rate 0.076% among 410,000; AID 602310; note: % is set by controls: 0 for no effect and ±100 for the full control effect; nearly all actives have a fitted effect of over 60% in size
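HeLa cells stably expressing Vif and C-terminally eYFP-tagged A3G, seeded overnight at 37 deg C, then exposed to compound by pintool overnight at 37 deg C. Rise in yellow fluorescence (Ex 488/Em 500-530, Acumen) marks blocked Vif-driven A3G degradation.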
Rango dissoc inh = prevents RanGTP from dissociating the Rango-importin beta complex; AID 540253; O95149+P62826; hit rate 0.071% among 340,000; Potency, µM (titrated, usually from 46.1 µM), for the others: at the highest dose activity change, negative = inhibition; Biochemical FRET Rango-importin beta, RanGTP-induced dissociation; calls by dose curve; note: % of control where 0% means no effect; nearly all actives have a fitted effect of over 45% in size
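Compounds sat 5 min at room temperature with 0.1 uM Rango biosensor plus 0.25 uM importin beta, then FRET pre-read. RanGTP-RCC1 (0.6 uM Ran, 2mM GTP, 0.2 uM RCC1) added for 45 min, and the CFP/YFP post-read measured blocked complex dissociation.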
Vif-APOBEC3F blk = inhibitors of Vif-A3F interaction | AID 602313 | hit rate 0.2% among 390,000 | Potency, µM (series often up to 46.1 µM), for the others: at the highest dose activity, negative = active | HeLa A3F-eYFP + Vif (tagged APOBEC3F with the HIV-1 protein that degrades it), YFP fluorescence increase; note: % of control where 0% means no effect; nearly all actives have a fitted effect of over 65% in size
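Fluorescence increase (Ex 488/Em 500-530) after overnight compound treatment at 37 deg C flags inhibition of Vif-driven A3F-eYFP loss in stable HeLa A3F-eYFP/Vif cells seeded overnight beforehand.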
Rango-impB inh = prevents formation of the Rango-importin beta complex. hit rate 0.031% among 340,000. Q14974. Rango CFP/YFP FRET sensor + importin beta, 45 min. Potency, µM (titrated, usually from 92.2 µM), for the others: at the highest dose inhibition of complex formation; calls by dose curve;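 note: 0% = DMSO wells and 100% = buffer wells lacking importin beta; nearly all actives have a fitted effect of over 15% in size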
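Inhibition scored from the CFP 486 nm/YFP 530 nm FRET ratio 45 min after adding 0.125 microM importin beta to 50 nM Rango biosensor preincubated 5 min with compound (room temperature, PBS with DTT, Tween-20, BSA). No-importin wells as positive control.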
Epigenetic derep = derepresses silenced GFP reporter in murine cells; murine LDR cells, GFP reporter derepression, 30 h; Potency, µM (titrated, usually from 53.9 µM), for the others: top-dose GFP activation, most hits filed as activators; hit rate 0.2% among 280,000; note: % of control where 0% means no effect; nearly all actives have a fitted effect of over 60% in size
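Derepression of a silenced CMV-GFP reporter in murine LDR cells is scored by enumerating GFP-positive cells with a laser-scanning microplate cytometer after 30 hours of treatment at 37 C.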
Starred values were filed as active, the others as inactive; i = inactive; ? = inconclusive; nt = no result. Shown are actives, neighbours in structure and some others; about 0.42% of the full set was active somewhere. Unless noted, calls come from the whole dose curve; as a rule, active = well fitted curve in the direction sought with a large enough effect; inconclusive = small, poorly fitted or top-dose-only effect, or another doubt; inactive = no such curve, though single readings can be large; an effect the other way counts as inactive or inconclusive. Potency is the fitted concentration of half-maximal effect.

SMILES	Rango dissoc inh	Epigenetic derep	Vif-APOBEC3F blk	Vif-APOBEC3G blk	Rango-impB inh
Cc1ccc(CNC(=O)c2cc(-c3ccc(C)cc3)nc3n[nH]c(-c4cccc([N+](=O)[O-])c4)c23)cc1	nt	2%	?	-7%	nt
CC(C)(C)OC(=O)NCCC(=O)Oc1ccc2ccc(=O)oc2c1	9.2µM*	6%	6%	-2%	?
CC(NC(=O)OC(C)(C)C)C(=O)Oc1ccc2ccc(=O)oc2c1 (stereo not given)	?	3%	-6%	2%	?
CN(C)c1ccc(/C=C/c2cc3ccccc3cn2)cc1	nt	nt	nt	3%	nt
CCOC(=O)c1c(NC(=O)C(C)Sc2cn(CCNC(=O)c3c(F)cccc3F)c3ccccc23)sc2c1CCC2 (stereo not given)	nt	-1%	-4%	-8%	nt
CCOc1ccc(Nc2nc(N)nc(CN(C)C3CCCCC3)n2)cc1	1%	1%	-1%	0%	58µM*
COc1ccc(Nc2nc(N)nc(CN(C)C3CCCCC3)n2)cc1	11%	-1%	nt	0%	-1%
Cc1ccc(Cl)c2c(N=Nc3ccccc3)c(O)[nH]c12	?	nt	8.9µM*	-13%	?
Cc1ccc(NC(=O)CSc2ccccc2NC(=O)c2cccc(Cl)c2)cc1Cl	-15%	0%	11µM*	-61%	0%
Cc1cccc(C(=O)Nc2ccccc2SCC(=O)Nc2ccc(C)c(Cl)c2)c1	-9%	1%	-9%	1%	1%
O=C(Cn1c(=O)n(-c2ccccc2)c(=O)c2ccc(C(=O)NCc3ccc4c(c3)OCO4)cc21)Nc1ccc(Br)cc1	nt	16µM*	0%	-1%	nt
COc1ccc(NC(=O)Cn2c(=O)n(-c3ccccc3)c(=O)c3ccc(C(=O)NCc4ccc5c(c4)OCO5)cc32)cc1	nt	24%	-7%	-11%	nt
CCOC(=O)/C=C1\CN(Cc2ccc(OC)cc2)S(=O)(=O)c2ccc(C(F)(F)F)cc21	nt	nt	nt	-1%	nt
COc1ccc2cc(/C=N/NC(=O)c3ccc(CN(c4ccc(C)c(C)c4)S(C)(=O)=O)cc3)c(Cl)nc2c1	-16%	22µM*	9%	-8%	?
COc1ccc2cc(/C=N/NC(=O)c3c(Cl)cnn3C)c(Cl)nc2c1	3%	?	0%	-1%	?
CCCCCCCCCC[n+]1ccc(/C=C/c2c(C)[nH]c3ccccc23)c2ccccc21	nt	nt	nt	7%	nt
O=C(O)C(c1ccccc1)N1C(=O)c2cccc3cccc(c23)C1=O (stereo not given)	-20%	nt	2%	0%	-4%
NN=C1c2ccccc2C(=O)C1C(=O)C(c1ccccc1)c1ccccc1 (stereo not given)	0%	nt	i	11µM*	?
Cc1cccc2cc(C#N)c(N3CCOCC3)nc12	18µM*	nt	-10%	0%	?
Cc1cc(C)c2nc(N3CCOCC3)c(C#N)cc2c1	?	nt	-1%	0%	?
CC(C)(C)n1ncc2c(=O)n(Cc3ccccc3F)cnc21	nt	nt	nt	0%	nt
CCN(CC)c1ccc(/C=C/C(=O)C2C(=O)C=C(C)OC2=O)cc1 (stereo not given)	?	11µM*	-314%	13%	?
CCN(CC)c1ccc(C=C2C(=O)OC(c3ccccc3)OC2=O)cc1 (stereo not given)	19%	1%	-20%	-1%	-1%
CC(=O)Nc1sc(/C(C#N)=C\c2cccc(Cl)c2)nc1-c1ccc(C)cc1	?	7.9µM*	10µM*	4µM*	?
Cc1ccc(CNC(=O)c2nc(-c3ccc(Cl)cc3)n3c2CCCCC3)cc1	nt	-1%	0%	-4%	nt
CN(C)c1ccc(NC2=C([N+](=O)[O-])CS(=O)(=O)C2)cc1	3%	16µM*	-7%	-3%	-1%
CC(C)(C)n1ncc2c(=O)n(Cc3cccc(C(F)(F)F)c3)cnc21	nt	nt	nt	0%	nt
N#C/C(=C\N1CCN(Cc2ccc3c(c2)OCO3)CC1)c1nc2ccccc2s1	?	?	28µM*	?	?
CCOC(=O)N1CCN(/C=C(\C#N)c2nc3ccccc3s2)CC1	?	8%	25µM*	22µM*	?
CCOC(=O)N1CCC(=NNc2nc3ccccc3s2)CC1	21%	-1%	-4%	0%	1%

Some of these compounds in order of SMILES length, descending.
SMILES	Rango dissoc inh	Epigenetic derep	Vif-APOBEC3F blk	Vif-APOBEC3G blk	Rango-impB inh
CN(C)c1ccc(NC2=C([N+](=O)[O-])CS(=O)(=O)C2)cc1	3%	16µM*	-7%	-3%	-1%
CCN(CC)c1ccc(C=C2C(=O)OC(c3ccccc3)OC2=O)cc1 (stereo not given)	19%	1%	-20%	-1%	-1%
CC(C)(C)n1ncc2c(=O)n(Cc3ccccc3F)cnc21	nt	nt	nt	0%	nt
CCOC(=O)N1CCC(=NNc2nc3ccccc3s2)CC1	21%	-1%	-4%	0%	1%
